31 compounds from patent US9694016B2 (Novartis AG, priority 2013, dated 2017) can be followed below.

By UniProt entry, the sequences of proteins in these tests, tags left out.
UniProt P04049, whole entry Y340E/Y341E: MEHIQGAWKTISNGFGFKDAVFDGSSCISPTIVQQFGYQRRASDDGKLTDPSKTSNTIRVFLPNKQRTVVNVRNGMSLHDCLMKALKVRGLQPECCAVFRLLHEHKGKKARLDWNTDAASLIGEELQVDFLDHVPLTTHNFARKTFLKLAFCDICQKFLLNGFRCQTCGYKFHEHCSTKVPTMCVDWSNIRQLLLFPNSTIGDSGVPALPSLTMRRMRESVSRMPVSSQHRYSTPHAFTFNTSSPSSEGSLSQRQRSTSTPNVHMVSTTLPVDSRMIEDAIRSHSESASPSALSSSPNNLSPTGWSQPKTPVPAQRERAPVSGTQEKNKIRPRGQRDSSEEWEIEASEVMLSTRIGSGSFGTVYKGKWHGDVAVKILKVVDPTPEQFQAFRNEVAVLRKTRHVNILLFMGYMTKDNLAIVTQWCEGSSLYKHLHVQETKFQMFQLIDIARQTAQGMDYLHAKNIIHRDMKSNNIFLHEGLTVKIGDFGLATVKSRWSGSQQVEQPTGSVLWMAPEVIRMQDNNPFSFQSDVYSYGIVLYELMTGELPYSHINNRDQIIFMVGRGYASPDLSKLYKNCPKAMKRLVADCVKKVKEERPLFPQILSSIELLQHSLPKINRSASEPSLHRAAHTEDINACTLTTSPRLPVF

The structures appear in SMILES notation.

In the first assay the target is C-Raf FL (full-length C-Raf protein, Y340E and Y341E activating mutations) (Homo sapiens (Human), UniProt P04049, Y340E/Y341E). In kind it is biochemical. Particulars: AlphaScreen, 60 min pre-incubation, 1 hour reaction; read-out: c-Raf FL IC-50.
Take `Cc1ncc(NC(=O)c2cccc(C(C)(C)S(C)(=O)=O)c2)cc1-c1cc(N2CCOCC2)n(C)c(=O)c1` [Example 512, N-(1′,2-dimethyl-6′-morpholino-2′-oxo-1′,2′-dihydro-[3,4′-bipyridin]-5-yl)-3-(2-(methylsulfonyl)propan-2-yl)benzamide]: the IC50 was determined as 15.6 nM.

Consider `Cc1ccc(NC(=O)c2cccc(C(F)(F)F)c2)cc1-c1nc(N2CCOCC2)c2c(cnn2C)n1` [Example 837, N-(4-methyl-3-(1-methyl-7-morpholino-1H-pyrazolo[4,3-d]pyrimidin-5-yl)phenyl)-3-(trifluoromethyl)benzamide], for which the IC50 turned out to be 0.1 nM. The same measure, in the same setting: the result for `Cc1ncc(NC(=O)c2ccnc(S(C)(=O)=O)c2)cc1-c1cc(N2CCOCC2)n2nccc2n1` [Example 807, N-(6-methyl-5-(7-morpholinopyrazolo[1,5-a]pyrimidin-5-yl)pyridin-3-yl)-2-(methylsulfonyl)isonicotinamide] reads 2.8 nM. The same measure, in the same setting: the same measure for `Cc1ccc(C(=O)Nc2cccc(C(F)(F)F)c2)cc1-c1cc(N2CCOCC2)nc(N2CC(O)C2)n1` [Example 766, 3-(2-(3-hydroxyazetidin-1-yl)-6-morpholinopyrimidin-4-yl)-4-methyl-N-(3-(trifluoromethyl)phenyl)benzamide]: 0.5 nM. On to `COc1nnc(-c2cc(NC(=O)c3cnnc(C(F)(F)F)c3)ccc2C)cc1N1CCOCC1` [Example 551, N-(3-(6-methoxy-5-morpholinopyridazin-3-yl)-4-methylphenyl)-6-(trifluoromethyl)pyridazine-4-carboxamide], for which the IC50 worked out at 0.5 nM. Turning to `CCc1cc(C(=O)Nc2ccc(C)c(-c3cc(N4CCOCC4)n(C)c(=O)c3)c2)ccn1` [Example 476, 2-ethyl-N-(4-methyl-3-(1-methyl-6-morpholino-2-oxo-1,2-dihydropyridin-4-yl)phenyl)isonicotinamide], the IC50 is 0.1 nM.

For the compound `COc1nnc(-c2cc(NC(=O)c3ccnc(C(C)(C)C#N)c3)ccc2C)cc1N1CCOCC1` [Example 558, 2-(2-cyanopropan-2-yl)-N-(3-(6-methoxy-5-morpholinopyridazin-3-yl)-4-methylphenyl)isonicotinamide], the IC50 turned out to be 0.7 nM. Same read-out and setting: the result for `CCN1CCN(c2cc(C(=O)Nc3ccc(C)c(-c4cc(N5CCOCC5)c(=O)n(C)n4)c3)cc(C(F)(F)F)c2)CC1` [Example 649, 3-(4-ethylpiperazin-1-yl)-N-(4-methyl-3-(1-methyl-5-morpholino-6-oxo-1,6-dihydropyridazin-3-yl)phenyl)-5-(trifluoromethyl)benzamide] reads 1.2 nM; that for `Cc1ccc(NC(=O)c2cccc(-c3nnco3)c2)cc1-c1cc(N2CCOCC2)c(=O)n(C)n1` [Example 639, N-(4-methyl-3-(1-methyl-5-morpholino-6-oxo-1,6-dihydropyridazin-3-yl)phenyl)-3-(1,3,4-oxadiazol-2-yl)benzamide], 1.4 nM.

Still in this assay, the particulars now being: AlphaScreen, 60 min pre-incubation, reaction 1 hour at room temperature; read-out: c-Raf FL IC-50.
With `Cc1ccc(NC(=O)c2cccc(C(F)F)c2)cc1-c1cc(N2CCOCC2)nc(N2CCOCC2)c1` [Example 1116, 3-(difluoromethyl)-N-(3-(2,6-dimorpholinopyridin-4-yl)-4-methylphenyl)benzamide], the IC50 stood at 0.22 nM.

Consider `Cc1ccc(NC(=O)c2ccnc(S(C)(=O)=O)c2)cc1-c1cc(N2CCOCC2)nc(N2CCOCC2)c1` [Example 1118, N-(3-(2,6-dimorpholinopyridin-4-yl)-4-methylphenyl)-2-(methylsulfonyl)isonicotinamide], for which the IC50 came to 0.3 nM.

Turning to `CCOc1cc(-c2cc(NC(=O)c3ccnc(C4CC4)c3)cnc2C)cc(N2CCOCC2)n1` [Example 1149, 2-cyclopropyl-N-(2′-ethoxy-2-methyl-6′-morpholino-[3,4′-bipyridin]-5-yl)isonicotinamide], the IC50 was 0.56 nM.

As to `Cc1ccc(NC(=O)c2ccnc(C(C)(C)F)c2)cc1-c1cc(N2CCOCC2)c(S(C)(=O)=O)nn1` [Example 928, 2-(2-fluoropropan-2-yl)-N-(4-methyl-3-(6-(methylsulfonyl)-5-morpholinopyridazin-3-yl)phenyl)isonicotinamide], the IC50 is 0.55 nM. Turning to `Cc1ccc(NC(=O)c2cccc(C(F)(F)F)c2)cc1-c1cc(NC(=O)C(C)O)nc(N2CCOCC2)c1` (centres unmarked) [Example 1066, N-(3-(2-(2-hydroxypropanamido)-6-morpholinopyridin-4-yl)-4-methylphenyl)-3-(trifluoromethyl)benzamide], the IC50 was 0.21 nM. Turning to `Cc1ncc(NC(=O)c2ccnc(C(C)(F)F)c2)cc1-c1cc(N2CCOCC2)c2nccn2c1` [Example 879, 2-(1,1-difluoroethyl)-N-(6-methyl-5-(8-morpholinoimidazo[1,2-a]pyridin-6-yl)pyridin-3-yl)isonicotinamide], the IC50 is 1.2 nM. As to `Cc1ccc(NC(=O)c2ccnc(C(F)(F)F)c2)cc1-c1cc(-c2c(C)n[nH]c2C)nc(N2CCOCC2)c1` [Example 1127, N-(3-(2-(3,5-dimethyl-1H-pyrazol-4-yl)-6-morpholinopyridin-4-yl)-4-methylphenyl)-2-(trifluoromethyl)isonicotinamide], the IC50 worked out at 0.38 nM. Still for that read-out and setting: the same measure for `Cc1ccc(NC(=O)c2cnnc(C(F)(F)F)c2)cc1-c1cc(NCCO)nc(N2CCOCC2)c1` [Example 1047, N-(3-(2-((2-hydroxyethyl)amino)-6-morpholinopyridin-4-yl)-4-methylphenyl)-6-(trifluoromethyl)pyridazine-4-carboxamide]: 0.51 nM.

As for `Cc1ncc(NC(=O)c2ccnc(C3(C#N)CC3)c2)cc1-c1cc(N2CCOCC2)nc(N2CC(C)(O)C2)c1` [Example 1109, 2-(1-cyanocyclopropyl)-N-(2′-(3-hydroxy-3-methylazetidin-1-yl)-2-methyl-6′-morpholino-[3,4′-bipyridin]-5-yl)isonicotinamide], the IC50 was 1.45 nM.

Still in this assay, the particulars now being: Table 2; AlphaScreen, 1 hour reaction; read-out: c-Raf FL IC-50.
With `Cc1ccc(NC(=O)c2ccnc(C(C)(C)C#N)c2)cc1-c1cc(N2CCOCC2)c(=O)n(CC2(C)COC2)c1` [Example 338, 2-(2-cyanopropan-2-yl)-N-(4-methyl-3-(1-((3-methyloxetan-3-yl)methyl)-5-morpholino-6-oxo-1,6-dihydropyridin-3-yl)phenyl)isonicotinamide], the IC50 amounted to 6400 nM. For `Cn1cc(-c2cc(C(=O)Nc3cccc(C(F)(F)F)c3)cnc2Cl)cc(N2CCOCC2)c1=O` [Example 423, 2-chloro-1′-methyl-5′-morpholino-6′-oxo-N-(3-(trifluoromethyl)phenyl)-1′,6′-dihydro-[3,3′-bipyridine]-5-carboxamide], the IC50 stood at 1.9 nM. For `Cc1ccc(NC(=O)c2cccc(S(C)(=O)=O)c2)cc1-c1cc(N2CCOCC2)nc(N2CCOCC2)n1` [Example 23, N-(3-(2,6-dimorpholinopyrimidin-4-yl)-4-methylphenyl)-3-(methylsulfonyl)benzamide], the IC50 came to 0.6 nM. Still for that read-out and setting: the result for `Cc1ncc(NC(=O)c2ccnc(C(C)C)c2)cc1-c1cnc(OC2CCOCC2)c(N2CCOCC2)c1` [Example 313, 2-isopropyl-N-(2-methyl-5′-morpholino-6′-((tetrahydro-2H-pyran-4-yl)oxy)-[3,3′-bipyridin]-5-yl)isonicotinamide] reads 1.7 nM; that for `Cn1cc(-c2cc(NC(=O)c3ccnc(C(C)(F)F)c3)ccc2F)cc(N2CCOCC2)c1=O` [Example 419], 1.2 nM; that for `Cc1cn(-c2cc(NC(=O)c3ccc(C)c(-c4cc(N5CCOCC5)c(=O)n(C)c4)c3)cc(C(F)(F)F)c2)cn1` [Example 428, 4-methyl-N-(3-(4-methyl-1H-imidazol-1-yl)-5-(trifluoromethyl)phenyl)-3-(1-methyl-5-morpholino-6-oxo-1,6-dihydropyridin-3-yl)benzamide], 3.3 nM. As to `Cc1ncc(NC(=O)c2ccnc(C(C)(C)F)c2)cc1-c1cnc(N(C)C)c(N2CCOCC2)c1` [Example 268, N-(6′-(dimethylamino)-2-methyl-5-morpholino-[3,3′-bipyridin]-5-yl)-2-(2-fluoropropan-2-yl)isonicotinamide], the IC50 was found to be 0.6 nM. On to `CCOc1ncc(-c2cc(NC(=O)c3ccnc(C(F)(F)F)c3)cnc2C)cc1N1CCOCC1` [Example 246, N-(6′-ethoxy-2-methyl-5′-morpholino-[3,3′-bipyridin]-5-yl)-2-(trifluoromethyl)isonicotinamide], for which the IC50 came to 0.6 nM.

Turning to `CCOc1ncc(-c2cc(NC(=O)c3cccc(-c4nnco4)c3)cnc2C)cc1N1CCOCC1` [Example 244, N-(6′-ethoxy-2-methyl-5′-morpholino-[3,3′-bipyridin]-5-yl)-3-(1,3,4-oxadiazol-2-yl)benzamide], the IC50 was 3.6 nM. On the same count and under the same terms, the result for `Cc1ccc(NC(=O)c2cccc(C(F)(F)F)c2)cc1-c1cncc(N2CCOCC2)n1` [Example 118, N-(4-methyl-3-(6-morpholinopyrazin-2-yl)phenyl)-3-(trifluoromethyl)benzamide] reads 0.2 nM; that for `Cc1ncc(NC(=O)c2cccc(C(F)(F)F)c2)cc1-c1cnc(OC2CN(C)C2)c(N2CCOCC2)c1` [Example 321, N-(2-methyl-6′-((1-methylazetidin-3-yl)oxy)-5′-morpholino-[3,3′-bipyridin]-5-yl)-3-(trifluoromethyl)benzamide], 8.5 nM. Same read-out and setting: the result for `CCOc1cc(C(=O)Nc2ccc(C)c(-c3cc(N4CCOCC4)c(=O)n(C)c3)c2)ccc1F` [Example 344, 3-ethoxy-4-fluoro-N-(4-methyl-3-(1-methyl-5-morpholino-6-oxo-1,6-dihydropyridin-3-yl)phenyl)benzamide] reads 0.5 nM; that for `Cc1ccc(NC(=O)c2cccc(C(F)(F)F)c2)cc1-c1cc(N2CCOCC2)nc(OCCO)n1` [Example 34, N-(3-(2-(2-hydroxyethoxy)-6-morpholinopyrimidin-4-yl)-4-methylphenyl)-3-(trifluoromethyl)benzamide], 0.3 nM.

The assay is the same for the next values; noted with them: full-length C-Raf approximately 4 nM, ATP 1 uM, 60 min pre-incubation, 1 hour reaction.
On to `Cc1ccc(NC(=O)c2cccc(C(F)(F)F)c2)cc1-c1cc(N2CCOCC2)nc(OCCO)n1` [Example 34, N-(3-(2-(2-hydroxyethoxy)-6-morpholinopyrimidin-4-yl)-4-methylphenyl)-3-(trifluoromethyl)benzamide], for which the IC50 turned out to be 0.304 nM.
